Laboratory results reported in US6951953B2, “Tumor selective and biodegradable polyphosphazene-platinum(II) conjugate antitumor agent, and preparation method thereof” (EWHA Womans University, priority 2003, dated 2005).

Tested on: B16F10 melanoma cells
Conditions: C57 BL/6N mice with B16F10 melanoma, Pt by ICP-MS, muscle as normal tissue
[1] = 2 hours after 20 mg/kg tail vein injection
[2] = 24 hours after 20 mg/kg tail vein injection

Substance | TTR values (tumor tissue/normal tissue distribution) [1] | TTR values (tumor tissue/normal tissue distribution) [2]
poly{[methoxy poly(ethylene glycol)550][glycylglutamato-trans(±trans-(±)-1,2-diaminocyclohexaneplatinum(II)]phosphazene}, {NP(MPEG350)1.12[(GlyGlu)Pt(dach)]0.88}n [Example 7] | 3.8 | 7.4
pol{[methoxy poly(ethylene glycol)350][glycylglutamato-trans-(±)-1,2-diaminocyclohexaneplatinum(II)]phosphazene}, {NP(MPEG350)1.2[(GlyGlu)Pt(dach)]0.8}n [Example 4] | 2.5 | 4.0
poly{[methoxy poly(ethylene glycol)350][glycylglutamato-trans-(±)-1,2-diaminocyclohexaneplatinum(II)]phosphazene}, {NP(MPEG350)1.2[(GlyGlu)Pt(dach)]0.8}n [Example 2] | 4.8 | 3.6
poly{[methoxy poly(ethylene glycol)350][glycylglutamato-trans-(±)-1,2-diaminocyclohexaneplatinum(II)]phosphazene}, {NP(MPEG350)1.5[(GlyGlu)Pt(dach)]0.5}n [Example 1] | 2.8 | 5.2

Like-named read-outs stand apart in the source and are kept apart here.
